Assay results: patent publication US20130123222A1, “Synergistic Anti-Cancer Activity of SR16388 with Anti-Mitotic Drugs” (SRI INTERNATIONAL, INC., priority 2011, published 2013)

System: panel of 48 to 60 cell lines
Assay: 5×4 combination screen with SR16388, CellTiter-Glo viability; synergy by pattern recognition
Conditions: in combination with SR16388, 5x4-T1

S=P(N1CC1)(N1CC1)N1CC1 [Thiotepa]
synergy (number of cell lines) (pattern recognition, of 60 cell lines incl. no data): 0
% synergy (share of cell lines with data): 0%
